Results published in US9918985B2, “Compounds and their use as BACE inhibitors” (ASTRAZENECA AB, priority 2010, dated 2018).

Chains of the proteins cited; added tags and fusions are not shown. Residues count along the entry.
UniProt P56817, 22-460: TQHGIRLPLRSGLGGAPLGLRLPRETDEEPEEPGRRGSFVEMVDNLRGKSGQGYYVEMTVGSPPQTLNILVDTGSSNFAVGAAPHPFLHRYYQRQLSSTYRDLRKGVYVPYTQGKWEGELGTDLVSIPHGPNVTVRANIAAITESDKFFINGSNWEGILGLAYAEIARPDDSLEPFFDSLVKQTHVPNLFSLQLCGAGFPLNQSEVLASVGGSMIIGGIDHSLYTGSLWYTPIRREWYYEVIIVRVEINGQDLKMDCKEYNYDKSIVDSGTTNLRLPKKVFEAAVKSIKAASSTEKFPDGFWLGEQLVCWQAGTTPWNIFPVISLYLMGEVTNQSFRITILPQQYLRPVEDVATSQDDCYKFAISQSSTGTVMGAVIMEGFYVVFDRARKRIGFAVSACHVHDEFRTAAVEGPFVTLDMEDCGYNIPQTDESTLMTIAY

Key:
[1] = target: T1, human β-Secretase (soluble part, sBACE-Fc) (Homo sapiens (Human), UniProt P56817); assay: TR-FRET assay; format: biochemical; conditions: standard TR-FRET assay, 15 minutes reaction at r.t.
Experimental: (§1) The β-secretase enzyme used in the TR-FRET is prepared as follows:
(§2) The cDNA for the soluble part of the human β-Secretase (AA 1-AA 460) was cloned using the ASP2-Fc10-1-IRES-GFP-neoK mammalian expression vector. The gene was fused to the Fc domain of IgG1 (affinity tag) and stably cloned into HEK 293 cells.
(§3) The robotic systems Biomek FX and Velocity 11 were used for all liquid handling and the enzyme and substrate solutions were kept on ice until they were placed in the robotic system. Enzyme (9 μl) was added to the plate then 1 μl of compound in dimethylsulphoxide was added, mixed and pre-incubated for 10 minutes. Substrate (10 μl) was then added, mixed and the reaction proceeded for 15 minutes at r.t. The reaction was stopped with the addition of Stop solution (7 μl, NaAcetate, pH 9). […] The dimethylsulphoxide control, instead of test compound, defined the 100% activity level and 0% activity was defined by wells lacking enzyme (replaced with reaction buffer).

[2] = target: T1, human β-Secretase (soluble part, sBACE-Fc); assay: Diluted TR-FRET assay; format: biochemical; conditions: footnote a: diluted FRET assay, 50 times less enzyme, 6.5 h reaction time; read-out: IC50 in TR-FRET assay (IC50 from the diluted FRET assay)
Experimental: as §1, §2, §3

Structure (SMILES) | IC50 [1] [nM] | IC50 [2] [nM]
CC1=NC2(N=C1N)c1cc(-c3cncc(Cl)c3)ccc1CC21CCC(C(F)F)CC1 (stereo not shown) [Example 129, 6′-(5-Chloropyridin-3-yl)-4-(difluoromethyl)-5″-methyl-3′H-dispiro[cyclohexane-1,2′-indene-1′,2″-imidazol]-4″-amine] | 748 | 
CO[C@H]1CC[C@]2(CC1)Cc1ccc(C#CC(C)(C)C)cc1C21N=C(C)C(N)=N1 (single isomer, unassigned; isomer 2) [Example 20h Isomer 2, (1r,4r)-6′-(3,3-dimethylbut-1-yn-1-yl)-4-methoxy-5″-methyl-3′H-dispiro-[cyclohexane-1,2′-indene-1′,2″-imidazol]-4″-amine] | 21 | 
CO[C@H]1CC[C@]2(CC1)Cc1ccc(-c3cc(Br)cc(C#N)c3)cc1C21N=C(C)C(N)=N1 (single isomer, unassigned; isomer 2) [Example 94 Isomer 2, 3-[(1r,4r)-4″-Amino-4-methoxy-5″-methyl-3′H-dispiro[cyclohexane-1,2′-indene-1′,2″-imidazol]-6′-yl]-5-bromobenzonitrile] | 4950 | 
CO[C@H]1CC[C@]2(CC1)Cc1ccc(-c3cc(Br)cc(C#N)c3)cc1C21N=C(C)C(N)=N1 (single isomer, unassigned; isomer 1) [Example 94 Isomer 1, 3-[(1r,4r)-4″-Amino-4-methoxy-5″-methyl-3′H-dispiro[cyclohexane-1,2′-indene-1′,2″-imidazol]-6′-yl]-5-bromobenzonitrile] |  | 0.7
